Yeast UUG start: yeast start codon fidelity modulation; activity score, % at 18.7 µM; actives 0.13% (n = 350,000); S. cerevisiae UUG-firefly luciferase reporter, luminescence/redox ratio; AID 602363;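 active means replicate mean at a twofold rise or more, about +100% in these data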;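 further: firefly luciferase made from a UUG start codon reports start codon fidelity; reporter light over untreated wells divided by growth signal over untreated wells; some hits fall short of that in this replicate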
E-sel inducer: E-selectin induction on HUVECs; activation, % at 7.58 µM; HUVEC E-selectin immunofluorescence imaging; normalized: neutral wells 0, TNF-alpha wells 100; AID 686992; 260,000 compounds, 0.37% hits;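 active = mean E-selectin-positive cell signal at least 10% of the positive control, reached in at least 60% of replicates, without over 20% cell loss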
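Assay system: HUVEC primary endothelial cells. Input: 3,000 HUVEC seeded per well. Doses: one compound dose added by pin transfer. Read-out basis: % PE-positive cells. Benchmarks: TNF-alpha high, DMSO low. Detection: immunofluorescence imaging. Buffer or medium: EGM-2, gelatin.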
SIRT5 inh: inhibitors of human sirtuin-5 desuccinylase. 330,000 compounds, 1.1% hits. Q9NXA8. inhibition, % at 15 µM. Purified SirT5, succinyl-peptide AMC, trypsin-coupled fluorescence; in the data active = inhibition above about 15%
RAD54 inh: RAD54 (human) branch migration inhibition | Q92698 | RAD54 Holliday junction branch migration, FAM/BHQ fluorescence | inhibition, % at 10.4 µM | 360,000 compounds, 0.14% hits | AID 602329;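 active = mean normalized replicate activity at least 40 and at least half of replicates scoring 40 or more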;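 note: 0% = median of neutral control wells and 100% = median of positive control wells; inhibitors cause a drop in the FAM fluorescence signal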
RAD52 anneal inh: RAD52 (human) annealing inhibition | P43351 | recombinant RAD52 DNA annealing, FRET fluorescence | inhibition, % at 18.7 µM | 360,000 compounds, 0.46% hits | AID 651710;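 active = every replicate showing at least 50% inhibition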
MLL AF4-AF9 inh: MLL-AF4/AF9 protein interaction inhibition | P42568 | AlphaScreen, biotin-AF4 peptide binding to FLAG-AF9 | inhibition, % at 10 µM | 350,000 compounds, 0.47% hits;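 active = every replicate reaching a set inhibition limit, whatever the replicate mean, cut at about 25% in these data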;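 note: 0% = plate neutral control median and 100% = total signal loss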
* = called active by the depositor; nt = no result given. An excerpt weighted towards active compounds, which were near 1.8% of everything screened.

Short keys: A = Yeast UUG start; B = E-sel inducer; C = SIRT5 inh; D = RAD54 inh; E = RAD52 anneal inh; F = MLL AF4-AF9 inh
O=C(NCC[C@H]1CC[C@H](NC(=O)C2CCCCC2)[C@@H](CO)O1)c1cc(Cl)cc(Cl)c1
  A = -1; B = 0; C = 0; D = -10; E = -8; F = -3

CCCN1C[C@H](C)[C@@H](OC)CN(C)C(=O)c2cc(NS(=O)(=O)c3ccccc3)ccc2OC[C@H]1C
  A = nt; B = 0; C = 31*; D = 5; E = -10; F = -1

CO[C@H]1CN(C)C(=O)c2ccc(NC(=O)c3ccc(Oc4ccccc4)cc3)cc2OC[C@H](C)NC[C@H]1C
  A = -5; B = 1; C = 2; D = 7; E = 52*; F = 12

Cc1ccc(S(=O)(=O)N[C@@H]2CC[C@H](CC(=O)NCCN3CCCCC3)O[C@@H]2CO)cc1
  A = 0; B = 0; C = 1; D = 8; E = -14; F = -1

OC[C@H]1[C@@H](c2ccccc2)C2(CN(Cc3nccs3)C2)N1CCC(F)(F)F
  A = nt; B = 1; C = 1; D = nt; E = 10; F = 1

COc1ccc(/C=N/Nc2cc(C)nc3ccc(OC)cc23)c(OC)c1
  A = -22; B = 1; C = -4; D = 95*; E = 88*; F = 16

COc1ccc(Nc2cc(C)nc3ccccc23)cc1
  A = -21; B = nt; C = 18*; D = 35; E = 18; F = 2

O=C1C[C@@](C(=O)NCCN2CCOCC2)(c2ccc([N+](=O)[O-])cc2)[C@@H](c2ccc(CO)cc2I)N1CC12CC3CC(CC(C3)C1)C2
  A = 9; B = nt; C = -17; D = -11; E = 58*; F = 27*

CC(C(=O)NCCN1CCOCC1)c1ccc([N+](=O)[O-])cc1 (stereo not given)
  A = nt; B = nt; C = -5; D = nt; E = -11; F = -3

C[C@@H]1CN([C@H](C)CO)C(=O)c2cccc(NC(=O)Nc3ccc4c(c3)OCO4)c2O[C@H]1CN(C)S(=O)(=O)c1cccs1
  A = 5; B = 1; C = -3; D = -6; E = 29; F = 2

COc1ccc(NC(=O)CCCN2C(=O)CN(C)C2=O)c(OC)c1
  A = -1; B = 0; C = 0; D = 6; E = 8; F = 33*

COc1ccc(NC(=O)CCN2C(=O)c3ccccc3C2=O)c(OC)c1
  A = 3; B = nt; C = -3; D = 1; E = -9; F = -8

Cc1ccc(S(=O)(=O)N2C[C@@H](C)[C@]3(C2)[C@H](O)[C@H](OC(=O)NCc2ccco2)C[C@H]2C(=O)N(c4ccccc4)C(=O)[C@H]23)cc1
  A = 15; B = -1; C = 22*; D = -7; E = -26; F = 1

CN1CCCCN2[C@H](CO)[C@H](c3ccc(/C=C/c4ccccc4)cc3)[C@H]2C1
  A = 0; B = 0; C = -1; D = 13; E = 77*; F = 17

CN1CCCCN2[C@H](CO)[C@H](c3ccc(-c4ccccc4)cc3)[C@H]2C1
  A = -7; B = 0; C = 0; D = 3; E = 9; F = -6

Sorted by value in Yeast UUG start (smallest number first): three of the compounds above.
SMILES,Yeast UUG start,SIRT5 inh,RAD52 anneal inh,MLL AF4-AF9 inh
CN1CCCCN2[C@H](CO)[C@H](c3ccc(/C=C/c4ccccc4)cc3)[C@H]2C1,0,-1,77*,17
COc1ccc(NC(=O)CCN2C(=O)c3ccccc3C2=O)c(OC)c1,3,-3,-9,-8
C[C@@H]1CN([C@H](C)CO)C(=O)c2cccc(NC(=O)Nc3ccc4c(c3)OCO4)c2O[C@H]1CN(C)S(=O)(=O)c1cccs1,5,-3,29,2

(cont.)
Short keys: A = Yeast UUG start; B = E-sel inducer; C = SIRT5 inh; D = RAD54 inh; E = RAD52 anneal inh; F = MLL AF4-AF9 inh
CN1CCCCN2[C@H](CO)[C@@H](c3ccc(-c4ccccc4)cc3)[C@@H]2C1
  A = -5; B = 0; C = -4; D = -13; E = 19; F = -3

CN1CCCCN2[C@H](CO)[C@@H](c3ccc(/C=C/c4ccccc4)cc3)[C@H]2C1
  A = 6; B = 0; C = 1; D = 8; E = 53*; F = 10

CCC(=O)Nc1ccc2c(c1)C(=O)N(C)C[C@H](OC)[C@H](C)CN(CC1CC1)[C@H](C)CO2
  A = -10; B = 0; C = 1; D = 2; E = -4; F = -1

CCC(C)NC(=O)CN1C(=O)NC2NC(=O)NC21 (stereo not given)
  A = nt; B = 5; C = -1; D = nt; E = -8; F = -1

CCC(C)N1C(=O)N(C)C2NC(=O)NC21 (stereo not given)
  A = nt; B = nt; C = 25*; D = nt; E = -13; F = -2

CN1CCN(c2cc(N3CCN(C(=O)c4ccco4)CC3)c3c4c(onc24)-c2ccccc2C3=O)CC1
  A = -5; B = nt; C = nt; D = 54*; E = nt; F = nt

O=C1c2ccccc2-c2onc3c(N4CCN(CCO)CC4)cc(N4CCN(C(=O)c5ccco5)CC4)c1c23
  A = 0; B = nt; C = -7; D = 31; E = -42; F = 76*

CCOC(=O)N1CCN(c2cc(NCCC(=O)O)c3c4c(onc24)-c2ccccc2C3=O)CC1
  A = -2; B = nt; C = nt; D = -94; E = nt; F = nt

CN(C)c1ccc(C(=O)c2ccccc2C(=O)O)cc1[N+](=O)[O-]
  A = nt; B = nt; C = 28*; D = nt; E = -14; F = -2

C[C@@H]1CN([C@@H](C)CO)C(=O)c2cccc(NS(=O)(=O)c3ccccc3)c2O[C@@H]1CN(C)S(C)(=O)=O
  A = 7; B = 0; C = -3; D = 12; E = 4; F = -3

CN(C)CC/C=C1/c2cc(F)ccc2Sc2ccc(Cl)cc21
  A = 9; B = nt; C = -3; D = 21; E = 47; F = 37*

CN(C)CC/C=C1/c2ccccc2Sc2c(O)cc(Cl)cc21
  A = -3; B = nt; C = nt; D = -10; E = nt; F = nt
